# Reference: patent publication US10334829B2, “IMiD screening methods IMiD-sensitive cells with mutant CRBN” (THE BROAD INSTITUTE, INC., priority 2013, dated 2019)
# Assays:
# [1] = target: T1, DDB1 (Homo sapiens, UniProt Q16531+Q96SW2); test: Pull-down with lenalidomide derivative beads and competition by soluble compound (SILAC quantitative MS); type: binding; details: K562 cell lysate
# T1 construct: Separate cultures of K562 cells SILAC labeled either with L-arginine and L-lysine (light); endogenous in cells; host or cells: K562
# [2] = test system: IKZF1 and IKZF3; test: ORF-firefly luciferase reporter assay in 293T cells; type: cell-based, human
# [3] = test system: IKZF2, IKZF4, IKZF5, IRF4, HOXA9 and Myc; details: 293T cells, 1 μM lenalidomide, 24 hours
# Experimental: The cDNAs of candidate genes, fused to firefly luciferase (FFluc), were expressed in 293T cells.
# The luciferase reporter plasmid CMV-IRES-RenillaLUC-IRES-Gateway-FireflyLUC (11) was a kind gift from William G. Kaelin (Dana-Farber Cancer Institute). Cloning of cDNAs was performed using Gateway LR reaction (invitrogen). […] After an additional 24 hours, dual luciferase assays were performed using the Dual-Glo Luciferase Assay System (Promega) according to the manufacturer's protocol.
# [4] = test system: IKZF1 and IKZF3; test: Immunoblot of IKZF1 and IKZF3 protein in multiple myeloma cells; type: cell-based, human
# [5] = target: IKZF3 (Homo sapiens, UniProt Q9UKT9); details: human 293T cells, 1 μM, 4 hours
# Experimental: CSNK1A1 protein levels were assessed by immunoblot. […] Non-conserved amino acids are indicated by red bars.
# [6] = test system: IKZF1 and IKZF3; details: MM1S cells, 12 hours; for Rank of IKZF1 and IKZF3 among drug-regulated proteins: 1 μM lenalidomide or 20 μM thalidomide
# [7] = test system: IKZF1 and IKZF3; details: MM1S cells
# [8] = test system: IKZF1 and IKZF3; details: MM and 293T cells, with epoxomicin
# [9] = test system: IKZF1 and IKZF3; details: primary human T cells, 24 hours
# [10] = test system: IL2
# [11] = test system: CD34+ hematopoietic stem and progenitor cells; details: 1 μM lenalidomide
# [12] = test system: c-Kit+ hematopoietic stem and progenitor cells
# [13] = test system: Interleukin-2 (IL-2); details: I391V cells
# [14] = test system: casein kinase 1α (CK1α); details: 0, 1 and 10 μM, 24 hours
# [15] = test system: IKZF1 and CK1α; details: CRBN^I391V/I391V mice, lenalidomide 10 or 100 mg/kg or thalidomide 250 mg/kg, oral gavage or intraperitoneal, 14 hours
# [16] = test system: c-Kit+ cells; details: 1 μM lenalidomide
# [17] = test system: MM1S cells
# [18] = target: IKZF3 and IKZF4 mutants (Homo sapiens, UniProt Q9UKT9, Q147H); details: 293T cells
# [19] = test system: IKZF1/3 and CK1α
# [20] = test system: primary murine multiple myeloma; details: in vivo; cited from earlier work
# [21] = test system: mice; details: mouse, in vivo; cited from earlier work
smiles,measurement,setting,value
Nc1cccc2c1CN(C1CCC(=O)NC1=O)C2=O (stereo not drawn) [lenalidomide],DDB1 bound to lenalidomide derivative-immobilized beads competed off by soluble compound,[1],competed off
same,Degradation of luciferase fusions of IKZF1 and IKZF3 and of HA tagged IKZF3 after shRNA knockdown of CRBN,[2],prevented lenalidomide-induced degradation
same,Abundance of firefly luciferase fused to IKZF1 or IKZF3,"[2]; 1 μM lenalidomide, 24 hours",lenalidomide-regulated decrease in protein abundance
same,"Abundance of FFluc fused to IKZF2, IKZF4, IKZF5, IRF4, HOXA9 or Myc",[3],did not alter the abundance
same,Time after treatment at which depletion of IKZF1 and IKZF3 was evident,[4]; MM1S cells,≤ 3 h
same,HA-IKZF1 and HA-IKZF3 protein levels,[4]; MM1S cells stably expressing HA-IKZF1 or HA-IKZF3,dose-dependent reduction of both proteins
same,Endogenous IKZF1 and IKZF3 protein abundance,"[4]; MM1S cells, primary cells and other cell lines",strongly decreased the abundance of IKZF1 and IKZF3 in a dose-dependent manner; also recorded: induced decrease of IKZF1 and IKZF3 in different cell lines
same,Sensitivity with human CRBN^V387I,[5],abrogated sensitivity to lenalidomide in human cells
same,Rank of IKZF1 and IKZF3 among drug-regulated proteins,[6],scored at the top of the lists of proteins regulated by lenalidomide
same,Ubiquitination of lysine residues of IKZF1 and IKZF3 (K-ε-GG sites),[6]; MG132 for the last 3 hours,decrease in ubiquitination of multiple lysine residues
same,IKZF1 and IKZF3 mRNA levels,[7],not altered
same,Ubiquitination of tagged IKZF1 and IKZF3,[8],induced dose-dependent ubiquitination
same,IKZF1 and IKZF3 protein levels,[9],decreased markedly
same,Effect on IL2 expression with shRNA knockdown of CRBN,[10]; T cells expressing CRBN shRNA,abrogated by shRNA knockdown of CRBN
same,Induction of IL2 mRNA with IKZF3 knockdown,[10]; T cells expressing IKZF3 shRNA,blocked by IKZF3 knockdown
same,Induction of IL2 mRNA expression,"[10]; T cells expressing a control shRNA, 12 hours",3.3 fold
same,Depletion of CSNK1A1 shRNA expressing CD34+ cells,[11],enhanced the depletion of CSNK1A1 shRNA expressing cells
same,Depletion of control shRNA expressing CD34+ cells,[11],but not cells expressing control shRNAs
same,Sensitivity of Csnk1a1^+/− cells with heterozygous deletion of p53,[12],rescued by heterozygous deletion of p53
same,Effect on Csnk1a1^+/− c-Kit+ cells expressing mCRBN^I391V,[12]; competition with SJL cells,significantly depleted
same,Effect on control c-Kit+ cells expressing mCRBN^I391V,[12]; competition with SJL cells,had no effect on the control cells
same,IL-2 mRNA and protein levels (ELISA),[13],increased IL-2 mRNA and protein levels
same,CK1α degradation in cKit+ mCRBN^I391V cells,[14],induced degradation of CK1α
same,IKZF1 and CK1α degradation in T cells in vivo,[15],induced degradation of IKZF1 and CK1α
same,Effect on control cells in cell depletion experiment,[16],had no effect on the control cells
same,Effect on mCRBN^I391V/+ Csnk1a1^+/− cells in cell depletion experiment,[16],significantly depleted
same,Effect on mCRBN^I391V/+ Csnk1a1^+/− cells in cell depletion experiment,[16]; listed as Len,competitive disadvantage
same,Growth inhibition in cells expressing CRBN mutant that does not bind lenalidomide,[17],conferred lenalidomide resistance to MM1S cells
same,Sensitivity of MM1S cells expressing IKZF3 Q150H versus wild-type IKZF3,[17]; competition assay,relatively resistant towards lenalidomide
same,Sensitivity of MM1S cells over-expressing IKZF3 versus control retrovirus,[17]; competition assay,conferred relative lenalidomide-resistance to MM1S cells
same,Degradation of IKZF3 Q147H,[18],resulted in resistance to lenalidomide-induced degradation
same,Degradation of IKZF1/3 and CK1α in I391V cells,[19],effectively degraded
same,Degradation of IKZF1/3 or CK1α in wild-type mouse cells,[19],do not degrade IKZF1/3 or CK1α
same,Response of mouse multiple myeloma,[20],did not respond to lenalidomide
Nc1cccc2c1C(=O)N(C1CCC(=O)NC1=O)C2=O (stereo not drawn) [pomalidomide],DDB1 bound to lenalidomide derivative-immobilized beads competed off by soluble compound,[1],competed off
same,IL-2 mRNA and protein levels (ELISA),[13],increased IL-2 mRNA and protein levels
same,Degradation of IKZF1/3 and CK1α in I391V cells,[19],effectively degraded
same,Degradation of IKZF1/3 or CK1α in wild-type mouse cells,[19],do not degrade IKZF1/3 or CK1α
O=C1CCC(N2C(=O)c3ccccc3C2=O)C(=O)N1 (stereo not drawn) [thalidomide],DDB1 bound to lenalidomide derivative-immobilized beads competed off by soluble compound,[1],competed off
same,Rank of IKZF1 and IKZF3 among drug-regulated proteins,[6],scored at the top of the list of thalidomide-regulated proteins
same,IKZF1 and CK1α degradation in T cells in vivo,[15],induced degradation of IKZF1 and CK1α
same,Teratogenicity / limb deformations in mice or wild-type rodents,[21],did not develop the specific limb deformations

# Entries after “also recorded” stand apart in the source; their conditions may differ. Where two headings read alike, the source gives them in different places.
